Key:
Test in all cases: In vitro combination study with tazemetostat, cell proliferation (Cell Titer Glo)
Conditions in all cases: 7 days tazemetostat pre-treatment, 6 days co-treatment with second agent
[1] = tested on: NCI-H2122
[2] = tested on: HCC827
[3] = tested on: NCI-H1793
[4] = tested on: NCI-H2030
[5] = tested on: A427
[6] = tested on: Calu-6
[7] = tested on: NCI-H661
[8] = tested on: NCI-H460
[9] = tested on: NCI-H23
[10] = tested on: NCI-H2110
[11] = tested on: NCI-H1993
[12] = tested on: Calu-3
[13] = tested on: NCI-H1703
[14] = tested on: NCI-H838
[15] = tested on: A549
[16] = tested on: NCI-H522
[17] = tested on: NCI-H1299

| Compound | combinatorial effect with tazemetostat (Loewe volume class) [1] | combinatorial effect with tazemetostat (Loewe volume class) [2] | combinatorial effect with tazemetostat (Loewe volume class) [3] | combinatorial effect with tazemetostat (Loewe volume class) [4] | combinatorial effect with tazemetostat (Loewe volume class) [5] | combinatorial effect with tazemetostat (Loewe volume class) [6] | combinatorial effect with tazemetostat (Loewe volume class) [7] | combinatorial effect with tazemetostat (Loewe volume class) [8] | combinatorial effect with tazemetostat (Loewe volume class) [9] | combinatorial effect with tazemetostat (Loewe volume class) [10] | combinatorial effect with tazemetostat (Loewe volume class) [11] | combinatorial effect with tazemetostat (Loewe volume class) [12] | combinatorial effect with tazemetostat (Loewe volume class) [13] | combinatorial effect with tazemetostat (Loewe volume class) [14] | combinatorial effect with tazemetostat (Loewe volume class) [15] | combinatorial effect with tazemetostat (Loewe volume class) [16] | combinatorial effect with tazemetostat (Loewe volume class) [17] |
| --- | --- | --- | --- | --- | --- | --- | --- | --- | --- | --- | --- | --- | --- | --- | --- | --- | --- |
| ATRA | Anta. (volumes <−1 denoted “antagonism”) | No eff. | No eff. | Anta. (volumes <−1 denoted “antagonism”) | Add. (A value between −1 and 1 denoted “additivity”) | Syn. (Loewe volumes greater than 1 denoted “synergy”) | – | – | – | – | – | – | – | – | – | – | – |
| Nc1ncn([C@H]2C[C@H](O)[C@@H](CO)O2)c(=O)n1 [Decitabine, decitabine] | Syn. (Loewe volumes greater than 1 denoted “synergy”) | – | Syn. (Loewe volumes greater than 1 denoted “synergy”) | – | – | – | Syn. (Loewe volumes greater than 1 denoted “synergy”) | Syn. (Loewe volumes greater than 1 denoted “synergy”) | Add. (A value between −1 and 1 denoted “additivity”) | Add. (A value between −1 and 1 denoted “additivity”) | – | – | – | – | – | – | – |
| CCC1=C[C@@H]2CN(C1)Cc1c([nH]c3ccccc13)[C@@](C(=O)OC)(c1cc3c(cc1OC)N(C)[C@H]1[C@@](O)(C(=O)OC)[C@H](OC(C)=O)[C@]4(CC)C=CCN5CC[C@]31[C@@H]54)C2 [Vinorelbine, vinorelbine] | Syn. (Loewe volumes greater than 1 denoted “synergy”) | Add. (A value between −1 and 1 denoted “additivity”) | – | Add. (A value between −1 and 1 denoted “additivity”) | Syn. (Loewe volumes greater than 1 denoted “synergy”) | – | – | Add. (A value between −1 and 1 denoted “additivity”) | – | Add. (A value between −1 and 1 denoted “additivity”) | Add. (A value between −1 and 1 denoted “additivity”) | Syn. (Loewe volumes greater than 1 denoted “synergy”) | – | – | – | – | – |
| CS(=O)(=O)CCNCc1ccc(-c2ccc3ncnc(Nc4ccc(OCc5cccc(F)c5)c(Cl)c4)c3c2)o1 [Lapatinib, lapatinib] | Anta. (volumes <−1 denoted “antagonism”) | – | Syn. (Loewe volumes greater than 1 denoted “synergy”) | – | – | – | – | Syn. (Loewe volumes greater than 1 denoted “synergy”) | – | Syn. (Loewe volumes greater than 1 denoted “synergy”) | – | – | Syn. (Loewe volumes greater than 1 denoted “synergy”) | Syn. (Loewe volumes greater than 1 denoted “synergy”) | Add. (A value between −1 and 1 denoted “additivity”) | – | – |
| CN(Cc1cnc2nc(N)nc(N)c2n1)c1ccc(C(=O)N[C@@H](CCC(=O)O)C(=O)O)cc1 [Methotrexate, methotrexate] | – | – | – | – | – | – | – | – | – | – | – | – | – | Anta. (volumes <−1 denoted “antagonism”) | Anta. (volumes <−1 denoted “antagonism”) | Anta. (volumes <−1 denoted “antagonism”) | – |
| oxaliplatin | – | – | – | – | Syn. (Loewe volumes greater than 1 denoted “synergy”) | – | – | – | – | – | – | – | Anta. (volumes <−1 denoted “antagonism”) | – | – | – | – |
| C[C@@H](Oc1cc(-c2cnn(C3CCNCC3)c2)cnc1N)c1c(Cl)ccc(F)c1Cl [Crizotinib, crizotinib] | Add. (A value between −1 and 1 denoted “additivity”) | – | Syn. (Loewe volumes greater than 1 denoted “synergy”) | Syn. (Loewe volumes greater than 1 denoted “synergy”) | – | Add. (A value between −1 and 1 denoted “additivity”) | – | Add. (A value between −1 and 1 denoted “additivity”) | Add. (A value between −1 and 1 denoted “additivity”) | Add. (A value between −1 and 1 denoted “additivity”) | – | Add. (A value between −1 and 1 denoted “additivity”) | – | – | Add. (A value between −1 and 1 denoted “additivity”) | – | Add. (A value between −1 and 1 denoted “additivity”) |
| C#Cc1cccc(Nc2ncnc3cc(OCCOC)c(OCCOC)cc23)c1 [Erlotinib, erlotinib] | – | – | – | Add. (A value between −1 and 1 denoted “additivity”) | – | – | Syn. (Loewe volumes greater than 1 denoted “synergy”) | No eff. | No eff. | Syn. (Loewe volumes greater than 1 denoted “synergy”) | – | Syn. (Loewe volumes greater than 1 denoted “synergy”) | Syn. (Loewe volumes greater than 1 denoted “synergy”) | Syn. (Loewe volumes greater than 1 denoted “synergy”) | Anta. (volumes <−1 denoted “antagonism”) | – | – |

From patent US11452727B2, “Combination therapy for treating cancer” (Epizyme, Inc., priority 2017, dated 2022)
